Test results from patent publication US6403602B1 (priority 1997, dated 2002).

Chains of the proteins cited; added tags and fusions are not shown. Lines headed by an entry give the natural chain unless they say otherwise; changes in a name come on top. Residues count along the entry.
UniProt A0A286XTF2, 1-366: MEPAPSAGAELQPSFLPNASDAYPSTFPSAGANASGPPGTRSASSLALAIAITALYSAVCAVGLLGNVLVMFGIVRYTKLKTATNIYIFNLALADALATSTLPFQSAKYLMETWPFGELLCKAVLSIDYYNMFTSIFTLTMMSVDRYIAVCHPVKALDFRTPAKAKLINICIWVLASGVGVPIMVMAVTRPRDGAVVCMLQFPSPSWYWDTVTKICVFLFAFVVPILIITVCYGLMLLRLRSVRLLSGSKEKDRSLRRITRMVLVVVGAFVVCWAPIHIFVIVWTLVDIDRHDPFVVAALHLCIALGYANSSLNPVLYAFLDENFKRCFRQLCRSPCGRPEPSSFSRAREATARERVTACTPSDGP
UniProt P32300, whole entry: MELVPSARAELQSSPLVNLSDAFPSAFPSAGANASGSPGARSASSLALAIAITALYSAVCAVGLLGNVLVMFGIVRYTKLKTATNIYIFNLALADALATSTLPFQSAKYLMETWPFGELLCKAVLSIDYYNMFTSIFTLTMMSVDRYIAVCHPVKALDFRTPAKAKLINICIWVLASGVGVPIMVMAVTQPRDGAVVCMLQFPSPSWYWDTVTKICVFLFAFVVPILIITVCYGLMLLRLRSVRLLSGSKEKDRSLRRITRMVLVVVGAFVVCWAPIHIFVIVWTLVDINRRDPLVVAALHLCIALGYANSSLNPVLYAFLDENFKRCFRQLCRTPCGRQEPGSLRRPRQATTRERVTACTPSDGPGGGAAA

What was measured:
delta receptors = molecular target: T1, delta receptors (Cavia porcellus, UniProt A0A286XTF2); assay: biochemical; format: binding, guinea pig
T1 construct: The brains were then homogenized in 50 mM Tris HCl, buffer pH 7.7, using a Polytron; from tissue; host or cells: guinea pig brain homogenate (membrane pellet)

δ opioid receptor = molecular target: T2, δ opioid receptor (Mus musculus, UniProt P32300); assay: Antagonist activity (pA2) at δ in the functional assays; format: cell-based
T2 construct: from tissue; host or cells: organ-bath tissue, probably mouse vas deferens

kappa3 receptors = conditions: read-out: Ki κ3 [^3H]NalBzoH

## COC(=O)/C=C/C(=O)N[C@@H]1CC[C@@]2(O)[C@H]3Cc4ccc(O)c5c4[C@@]2(CCN3CC2CC2)[C@H]1O5 [β-FNA-HCl]
Delta receptors; read-out: Ki δ [^3H]Cl-DPDPE
  Ki: 7.7 nM

## C=CCN1CC[C@]23c4c5ccc(O)c4O[C@H]2[C@@H](O)C=C[C@H]3[C@H]1C5 [Nalorphine]
δ opioid receptor
  Kb: 162 nM

## C=CCN1CC[C@@]2(C)c3cc(O)ccc3CC1[C@@H]2C.Cl (single isomer, unassigned; (-)) [(−) SKF 10,047-HCl]
kappa3 receptors
  Ki: 1.5 nM

## O=C1/C(=C/c2ccccc2)C[C@@]2(O)[C@H]3Cc4ccc(O)c5c4[C@@]2(CCN3CC2CC2)[C@H]1O5 [BNTX]
kappa3 receptors
  Ki: 3.5 nM
Delta receptors; read-out: Ki δ [^3H]Cl-DPDPE
  Ki: 4.2 nM

## Oc1ccc2c3c1O[C@H]1c4[nH]c5ccccc5c4C[C@@]4(O)[C@@H](C2)N(CC2CC2)CC[C@]314 [Naltrindole]
Delta receptors
  Ki: 0.09 nM

Structures can show the parent of a compound that is named as a salt. Where two headings read alike, the source gives them in different places.
